One assay addresses human CXCR3A (Homo sapiens (Human), UniProt P49682). Description: FLIPR assay. It is filed as cell-based. The conditions noted are these: CHO-K1 cells expressing the human CXCR3A coupled to Galpha(16); CXCL10 agonist 20 nM; Fluo-4-AM fluorescence; mean values if determined several times. On the procedure: The bioactivity of compounds is tested in a fluorometric imaging plate reader (FLIPR: Molecular Devices) using engineered CHO-K1 cells expressing the human CXCR3A coupled to a G protein (Galpha(16)). Cells are plated the day prior to bioassay in F12 medium supplemented with 10% FBS and G418 and hygromycin antibiotics to maintain recombinant selection. At the day of bioassay, cells are washed and dye loaded for one hour with Fluo-4-AM (Invitrogen) in Hanks Balanced Salt Solution (Invitrogen), buffered with 20 mM Hepes at pH 7.4 and sodium bicarbonate (0.015%), containing 5 mM probenecid. […] Cells are washed free of excess dye and 60 microliter of wash buffer is added. Stock solutions of test compounds are made up at a concentration of 10 mM in DMSO, and serially diluted in dilution buffer to concentrations required for inhibition dose response curves. After a 10 minute incubation period at 37° C., 10 microliters of each compound dilution are transferred from a compound plate to the plate containing the recombinant cells in the FLIPR instrument according to the manufacturer's instructions. Following basal readings, 10 microliter CXCL10 agonist at a concentration of 20 nM (from Peprotech) is added, again using the FLIPR instrument. Changes in fluorescence are monitored before and after addition of the test compounds. […]

The chains behind the UniProt entries cited, without tags or fusion partners. Where a name states a change or a piece, a line headed by the entry shows the natural chain unless it says otherwise.
UniProt P49682: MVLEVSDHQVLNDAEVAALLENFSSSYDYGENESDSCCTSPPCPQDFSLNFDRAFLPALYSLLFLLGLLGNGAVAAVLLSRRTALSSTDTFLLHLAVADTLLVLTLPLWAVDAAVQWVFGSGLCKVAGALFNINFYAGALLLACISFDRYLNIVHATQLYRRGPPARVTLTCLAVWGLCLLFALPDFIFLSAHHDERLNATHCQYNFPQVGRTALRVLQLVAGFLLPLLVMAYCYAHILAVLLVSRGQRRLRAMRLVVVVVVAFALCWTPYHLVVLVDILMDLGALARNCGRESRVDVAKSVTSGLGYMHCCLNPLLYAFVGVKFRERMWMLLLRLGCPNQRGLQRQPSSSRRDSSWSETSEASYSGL

The target in another assay is CXCR3 (Homo sapiens (Human), UniProt P49682). Description: Receptor internalization assay. It is filed as cell-based. The following applies: human whole blood; final CXCL10 concentration 9 nM; 30 min 37° C.; CXCR3 cell surface expression on CD3 positive cells, flow cytometer. On the procedure: B): Receptor Internalization Assay:
Stock solutions of test compounds are made up at a concentration of 10 mM in DMSO, and serially diluted in PBS containing 0.5% BSA to concentrations required for inhibition dose response curves. Diluted compounds are then mixed with an equal volume of CXCL10 (Peprotech) diluted in PBS. Anticoagulated venous human whole blood is added to the mixture, which is then incubated in a CO2 incubator at 37° C. to allow for ligand mediated receptor internalization (final CXCL10 concentration is 9 nM). After 30′, the blood is mixed with fluorescently labeled CXCR3 and CD3 specific antibodies (Becton Dickinson) and incubated on ice for 10 minutes. Samples are then mixed with BD FACS Lysing Solution (Becton Dickinson) in order to eliminate red blood cells. After washing the cells with PBS containing 0.5% BSA, the samples are then analyzed in a flow cytometer (FACS Canto II, Becton Dickinson). For data analysis using FACSDiva software (Becton Dickinson), the mean fluorescence corresponding to CXCR3 cell surface expression was determined on CD3 positive cells. The program GraphPad Prism is used to fit the data to a single site dose response curve and to calculate IC50 values.
For orientation: In flow cytometry, cells or beads pass a laser one at a time.

As for “1-{(R)-4-[4-(1H-Benzoimidazol-2-yl)-2-trifluoromethyl-thiazol-5-yl]-2-methyl-piperazin-1-yl}-2-(3-phenyl-pyrazol-1-yl)-ethanone [Example 177]”, the IC50 worked out at 0.003 µM on human CXCR3A and 7.52 µM against CXCR3.

In general, IC50 refers to the concentration that inhibits the measured activity by half. Higher therefore signals a need for much substance.

For the origin of these results see US9266876B2 (Actelion Pharmaceuticals Ltd., priority 2012, dated 2016).
